{"sequences": {"note": "Chains of the proteins cited; added tags and fusions are not shown.", "UniProt P54132, whole entry": "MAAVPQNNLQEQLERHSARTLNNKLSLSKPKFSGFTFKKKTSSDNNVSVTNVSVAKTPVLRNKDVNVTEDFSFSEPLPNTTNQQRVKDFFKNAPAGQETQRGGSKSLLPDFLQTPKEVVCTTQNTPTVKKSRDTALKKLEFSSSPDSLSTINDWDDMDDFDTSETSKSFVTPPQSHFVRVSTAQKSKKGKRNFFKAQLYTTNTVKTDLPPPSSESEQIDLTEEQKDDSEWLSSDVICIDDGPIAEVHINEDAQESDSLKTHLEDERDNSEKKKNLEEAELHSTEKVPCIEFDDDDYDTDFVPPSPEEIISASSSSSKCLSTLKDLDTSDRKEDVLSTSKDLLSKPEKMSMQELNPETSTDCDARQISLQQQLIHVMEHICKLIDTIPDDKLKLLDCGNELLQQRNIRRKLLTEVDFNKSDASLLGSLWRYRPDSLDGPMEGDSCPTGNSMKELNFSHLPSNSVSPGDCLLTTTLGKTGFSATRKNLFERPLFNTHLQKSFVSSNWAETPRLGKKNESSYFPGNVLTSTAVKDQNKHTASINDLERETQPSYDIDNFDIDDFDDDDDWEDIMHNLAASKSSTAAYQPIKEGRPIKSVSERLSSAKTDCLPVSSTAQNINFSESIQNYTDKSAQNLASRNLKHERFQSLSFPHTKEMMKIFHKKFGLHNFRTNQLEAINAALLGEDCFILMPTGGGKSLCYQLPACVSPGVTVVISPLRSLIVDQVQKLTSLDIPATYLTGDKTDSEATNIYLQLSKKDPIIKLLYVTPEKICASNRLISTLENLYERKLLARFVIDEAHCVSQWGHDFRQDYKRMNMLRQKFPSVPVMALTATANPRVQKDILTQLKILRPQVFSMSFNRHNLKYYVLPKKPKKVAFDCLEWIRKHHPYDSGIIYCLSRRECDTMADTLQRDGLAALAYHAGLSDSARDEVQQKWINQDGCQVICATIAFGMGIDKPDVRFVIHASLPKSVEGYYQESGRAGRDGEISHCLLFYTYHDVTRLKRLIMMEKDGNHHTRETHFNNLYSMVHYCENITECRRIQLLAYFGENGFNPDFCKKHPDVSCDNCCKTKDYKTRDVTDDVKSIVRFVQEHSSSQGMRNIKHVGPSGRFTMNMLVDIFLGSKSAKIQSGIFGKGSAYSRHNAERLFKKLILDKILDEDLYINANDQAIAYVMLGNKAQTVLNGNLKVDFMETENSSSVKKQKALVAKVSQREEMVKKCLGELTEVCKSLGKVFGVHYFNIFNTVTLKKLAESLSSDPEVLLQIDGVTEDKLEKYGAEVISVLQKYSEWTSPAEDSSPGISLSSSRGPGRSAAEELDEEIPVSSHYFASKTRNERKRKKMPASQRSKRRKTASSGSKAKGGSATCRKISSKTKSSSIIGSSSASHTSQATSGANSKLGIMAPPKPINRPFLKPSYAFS"}, "source": "PubChem BioAssay AID2528", "about": "(National Center for Advancing Translational Sciences (NCATS), 2010)", "note": "Values joined by “and” are separate entries in the source; they are usually repeats but may differ in a detail not shown here. Identical values can stand only once. The list shows a part of the results, in another mix than the full data. Some results for these compounds are left out of this collection, so the calls shown say nothing about other tests. Active and inactive are the calls of the source. The call rests on the fitted dose curve; in most records, active means well fitted inhibition curve with a large enough effect; inconclusive means small, poorly fitted or top-dose-only effect; inactive means flat fitted curve, though single readings scatter.", "data": [{"molecular_target": "RecQ-like DNA helicase BLM (Homo sapiens) (UniProt P54132)", "assay": "qHTS Assay for Inhibitors of Bloom's syndrome helicase (BLM);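 further: plate controls were vehicle for no effect and no enzyme for full effect; nearly all actives have a fitted effect of over 35% in size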", "conditions": "recombinant BLM DNA unwinding, fluorescence dequenching; at 56.1 µM (top of the series)", "values": [{"smiles": "O=C(NCC1(N2CCCCC2)CCCCC1)c1cccc(Br)c1", "activity change, negative = inhibition": "inactive: -1.84%"}, {"smiles": "CCN1CCCC(OC(=O)C2(O)c3ccccc3C=Cc3ccccc32)C1", "note": "(stereo not given)", "activity change, negative = inhibition": "inactive: 4.34%"}, {"smiles": "Cc1cc(C(=O)NCC2(N3CCCCC3)CCCCC2)ccc1[N+](=O)[O-]", "activity change, negative = inhibition": "inactive: -3.31%"}, {"smiles": "CCOc1cccc(C(=O)NCC2(N(C)C)CCCCC2)c1", "activity change, negative = inhibition": "inactive: 0.89%"}, {"smiles": "COc1ccc(C(=O)NCC2(N(C)C)CCCCC2)cc1", "activity change, negative = inhibition": "inactive: -2.76%"}, {"smiles": "O=C(NCC1(N2CCCCC2)CCCCC1)c1cc(F)c(F)cc1Cl", "activity change, negative = inhibition": "inactive: 1.31%"}, {"smiles": "C=CCN1CCN(CCOC(=O)C(O)(c2ccccc2)c2ccccc2)CC1", "activity change, negative = inhibition": "inactive: 1.18%"}, {"smiles": "CN1CCCC(OC(=O)C(O)(c2ccccc2)c2ccccc2)C1", "note": "(stereo not given)", "activity change, negative = inhibition": "inactive: -0.0408%"}, {"smiles": "CCCCOc1ccccc1C(=O)NCC1(N(C)C)CCCCC1", "activity change, negative = inhibition": "inactive: 3.17%"}, {"smiles": "CN(C)c1ccc(C(=O)NCC2(N(C)C)CCCCC2)cc1", "activity change, negative = inhibition": "inactive: 1.15%"}, {"smiles": "CN(C)C1CCCC1OC(=O)C(O)(c1ccccc1)c1ccccc1", "note": "(stereo not given)", "activity change, negative = inhibition": "inactive: -0.285%"}, {"smiles": "Cc1ccccc1C(=O)NCC1(N2CCCCC2)CCCCC1", "activity change, negative = inhibition": "inactive: 2.68%"}, {"smiles": "CN(C)C1(CNC(=O)c2ccccc2[N+](=O)[O-])CCCCC1", "activity change, negative = inhibition": "inactive: -0.0535%"}, {"smiles": "CN(C)C1(CNC(=O)c2ccccc2F)CCCCC1", "activity change, negative = inhibition": "inactive: 1.43%"}, {"smiles": "Cc1ccc(C(=O)NCC2(N3CCCCC3)CCCCC2)cc1", "activity change, negative = inhibition": "inactive: -0.72%"}, {"smiles": "CC(C)N1C(=O)CC2(CCN(CCOC(=O)C(O)(c3ccccc3)c3ccccc3)CC2)C1=O", "activity change, negative = inhibition": "inactive: -2.62%"}, {"smiles": "COc1cc(SC)ccc1C(=O)NCC1(N(C)C)CCCCC1", "activity change, negative = inhibition": "inactive: 2.51%"}, {"smiles": "CCN(CC)CC(C)C(C)OC(=O)C(O)(c1ccccc1)c1ccccc1", "note": "(stereo not given)", "activity change, negative = inhibition": "inactive: 1.74%"}, {"smiles": "CN(C)C1(CNC(=O)c2cccc(Cl)c2)CCCCC1", "activity change, negative = inhibition": "inactive: 0.186%"}, {"smiles": "CN1[C@@H]2CC[C@H]1CC(OC(=O)C(O)(c1ccccc1)c1ccccc1)C2", "note": "(stereo not given in full)", "activity change, negative = inhibition": "inactive: -1.48%"}, {"smiles": "O=C(NCC1(N2CCCCC2)CCCCC1)c1cc([N+](=O)[O-])ccc1Cl", "activity change, negative = inhibition": "inactive: 1.78%"}, {"smiles": "CN(C)c1cccc(C(=O)NCC2(N(C)C)CCCCC2)c1", "activity change, negative = inhibition": "inactive: 2.19%"}, {"smiles": "CC(C)Oc1ccc(C(=O)NCC2(N(C)C)CCCCC2)cc1", "activity change, negative = inhibition": "inactive: 3.42% and inactive: -1.96%"}, {"smiles": "COc1ccc(Br)c(C(=O)NCC2(N3CCCCC3)CCCCC2)c1", "activity change, negative = inhibition": "inactive: 4.06%"}, {"smiles": "COc1cc(C(=O)NCC2(N(C)C)CCCCC2)cc(OC)c1OC", "activity change, negative = inhibition": "inactive: 3.32%"}, {"smiles": "Cc1cccc(C(=O)NCC2(N(C)C)CCCCC2)c1", "activity change, negative = inhibition": "inactive: 0.384%"}, {"smiles": "CC(C)COc1ccc(C(=O)NCC2(N(C)C)CCCCC2)cc1", "activity change, negative = inhibition": "inactive: -0.91%"}, {"smiles": "O=C(OC1CN2CCC1CC2)C(CO)(c1ccccc1)c1ccccc1", "note": "(stereo not given)", "activity change, negative = inhibition": "inactive: 1.47%"}, {"smiles": "COc1cccc(C(=O)NCC2(N3CCOCC3)CCCCC2)c1", "activity change, negative = inhibition": "inactive: 0.561%"}, {"smiles": "O=C(NCC1(N2CCCCC2)CCCCC1)c1cccc(Cl)c1", "activity change, negative = inhibition": "inactive: -0.485%"}, {"smiles": "COc1ccc(C(=O)NCC2(N(C)C)CCCCC2)cc1Cl", "activity change, negative = inhibition": "inactive: 5.42%"}, {"smiles": "COc1ccc(Cl)cc1C(=O)NCC1(N(C)C)CCCCC1", "activity change, negative = inhibition": "inactive: -1.35%"}, {"smiles": "COc1cccc(C(=O)NCC2(N3CCCCC3)CCCCC2)c1", "activity change, negative = inhibition": "inactive: 1.61%"}, {"smiles": "COc1cc(C(=O)NCC2(N(C)C)CCCCC2)c([N+](=O)[O-])cc1OC", "activity change, negative = inhibition": "inactive: -6.43%"}, {"smiles": "CN(C)C1(CNC(=O)c2ccc(Br)cc2)CCCCC1", "activity change, negative = inhibition": "inactive: -3.54%"}]}]}
